Laboratory results published in patent publication US20130280212A1, “INHIBITORS OF CYTOCHROME P450” (GILEAD SCIENCES, INC, priority 2010, published 2013).
Where two headings read alike, the source gives them in different places.

The chains behind the UniProt entries cited, without tags or fusion partners. Residues count along the entry.
UniProt P08684, 2-503 limits assumed: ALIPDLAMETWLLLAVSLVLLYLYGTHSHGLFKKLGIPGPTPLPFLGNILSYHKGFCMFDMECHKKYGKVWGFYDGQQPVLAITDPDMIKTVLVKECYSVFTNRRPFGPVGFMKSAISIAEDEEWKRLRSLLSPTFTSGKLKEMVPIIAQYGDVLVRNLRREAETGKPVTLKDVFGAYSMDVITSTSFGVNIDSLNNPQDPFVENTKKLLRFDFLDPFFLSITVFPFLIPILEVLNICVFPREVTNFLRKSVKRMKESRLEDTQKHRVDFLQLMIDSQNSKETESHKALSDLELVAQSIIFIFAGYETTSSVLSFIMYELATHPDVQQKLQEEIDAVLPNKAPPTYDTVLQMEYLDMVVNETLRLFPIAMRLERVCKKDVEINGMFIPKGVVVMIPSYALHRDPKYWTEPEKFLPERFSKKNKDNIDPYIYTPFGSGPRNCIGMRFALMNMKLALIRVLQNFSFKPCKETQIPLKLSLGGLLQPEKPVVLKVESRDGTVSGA

Biological target: CYP3A4 (Homo sapiens, UniProt P08684)
Experiment: CYP3A inhibition assay in pooled human hepatic microsomal fraction (midazolam 1-hydroxylase and testosterone 6β-hydroxylase activities)
Conditions: human hepatic microsomes
Experimental: Pooled (n≧15 donors) human hepatic microsomal fraction was obtained from BD-Gentest (Woburn, Mass.) who also supplied hydroxy-terfenadine, 4′-hydroxydiclofenac and NADPH regenerating system. Ritonavir was prepared from commercial Norvir® oral solution (Abbott Laboratories, Abbott Park, Ill.). Other reagents were from Sigma-Aldrich (St. Louis, Mo.) and included terfenadine, fexofenadine, BRL 15572, diclofenac and mefenamic acid.
Incubations were performed in duplicate in 50 mM potassium phosphate buffer, pH 7.4 with NADPH regenerating system used as described by the manufacturer. […] The final substrate concentrations used were equal to the apparent Km values for the activities determined under the same conditions. […]
The LC-MS system consisted of a Waters Acquity UPLC, with a binary solvent manager and a refrigerated (8° C.) sample organizer and sample manager, interfaced to a Micromass Quattro Premier tandem mass spectrometer operating in electrospray ionization mode. […] Concentrations of metabolites were determined by reference to standard curves generated with authentic analytes under the same conditions as the incubations. […]
For LC-MS analysis the column was a Phenomenex Synergi Max RP 4 μm column (50×2.0 mm) and the injection volume was 5 μL. […] Rates of metabolite formation were determined from standard curves using PAR determined with authentic metabolite standards.

Question: What does the source list for `CCCCC[C@H]1CC[C@H](C(=O)N[C@H](CC[C@H](Cc2ccccc2)NC(=O)OCc2cncs2)Cc2ccccc2)CC1`?
Answer: IC50 (read-out: CYP3A4 IC50 (μM) (midazolam), probe activity midazolam 1-hydroxylase): 2 µM; IC50 (read-out: CYP3A4 IC50 (μM) (testosterone), probe activity testosterone 6β-hydroxylase, substrate 50 μM): 10 µM
